One molecule from patent US20100261219A1, “TEST METHOD OF BIOAVAILABILITY AND BIOEQUIVALENCE FOR XENOBIOTICS USING GENETIC PROFILING” (priority 2008, published 2010) can be followed below.

Setting [1] is: all participants without classification of genotypes.
Setting [2] is: participants having wild type CYP2D6 only.

The structures appear in SMILES notation. Where two headings read alike, the source gives them in different places.

In the case of `Cc1nc2n(c(=O)c1CCN1CCC(c3noc4cc(F)ccc34)CC1)CCCC2` [risperidone, Risperidone], under setting [1], the “CVb of AUC values” was found to be 22.2% and the “CVb of Cmax values” amounted to 20.8%. Under setting [2], the “CVb of AUC values” is 15% and the “CVb of Cmax values” is given as 13.6%.
